In patent publication US9814918B2, “Microbial deactivation of explosive compositions” (dated 2017):

How the values were obtained:
[1] = test system: Escherichia coli DH5α; settings: 24 h in Luria Broth, 0.25 mM NEM, 0.25 mM MD, 1 mM DMFU, 4 mM DEME, DEMO, DMMO, 0.5 mM GTN, PETN, TNT; for nitroglycerin-degrading activity of cell-free extract: NADPH
[2] = test system: Pseudomonas sp. BB13; assay: Induction of nitroglycerin-degrading activity in Pseudomonas sp. BB13; settings: 24 h in Luria Broth, 0.25 mM NEM, 0.5 mM MD, 1 mM DMFU, 4 mM DEME, DEMO, DMMO, 0.5 mM GTN, PETN, TNT; for nitroglycerin-degrading activity of cell-free extract: NADPH
[3] = test system: Agrobacterium tumifaciens AGL-1; assay: Induction of nitroglycerin-degrading activity in Agrobacterium tumifaciens AGL-1; settings: 24 h in Luria Broth, 0.25 mM NEM, 0.125 mM MD, 1 mM DMFU, 4 mM DEME, DEMO, DMMO, 0.5 mM GTN, PETN, TNT; for nitroglycerin-degrading activity of cell-free extract: NADH
[4] = test system: mixed soil culture; settings: 24 h in Luria Broth, 1% w/v soil slurry, 0.5 mM GTN, PETN, TNT, NEM, 0.25 mM MD, 1 mM DMFU, 4 mM DEME, 1 mM 3HC, TPBO, TBHQ, DMME; for nitroglycerin-degrading activity of cell-free extract: NADPH
[5] = test system: Escherichia coli DH5α; assay: Induction of nitroglycerin-degrading activity in Escherichia coli DH5α with different dose rates of inducers; settings: for course of nitroglycerin-degrading activity with increasing inducer concentration: DMFU 0.01-1 mM, DEME 0.1-4 mM, 3HC 0.25-4 mM, TBHQ 0.5-4 mM, DMME 0.5-4 mM, TPBO 0.5-4 mM
[6] = highest concentrations tested (1 mM DMFU, 4 mM DEME), 24 h

SMILES | Fold-Induction relative to the control [1] | Fold-Induction relative to the control [2] [fold] | nitroglycerin-degrading activity of cell-free extract [2] [U/g] | Fold-Induction relative to the control [3] | Fold-Induction relative to the control [4] [fold] | nitroglycerin-degrading activity of cell-free extract [4] [U/g] | course of nitroglycerin-degrading activity with increasing inducer concentration ([5]; 24 h) | increase in enzyme activity ([5]; dose rate of 4 mM TPBO, 24 h) [fold] | nitroglycerin-degrading activity ([5]; 4 mM TBHQ) | concentration at which nitroglycerin-degrading activity peaked ([5]; TBHQ 0.5, 1, 2 and 4 mM) [mM] | nitroglycerin-degrading activity of cell-free extract [1] [U/g] | nitroglycerin-degrading activity of cell-free extract [3] [U/g] | increase in enzyme activity relative to the control ([5]; 0.01 mM DMFU, 24 h) [fold] | increase in enzyme activity relative to the control [5, 6] [fold] | increase in enzyme activity relative to the control ([5]; 0.1 mM DEME, 24 h) [fold]
O=[N+]([O-])OCC(CO[N+](=O)[O-])O[N+](=O)[O-] | did not illicit any significant response | 0.68 | <0.10 | did not illicit any significant response | – | – | – | – | – | – | – | – | – | – | –
CC(=O)/C=C/c1ccccc1 | – | – | – | – | 3.0 | 1.8 | increase in nitroglycerin-degrading activity with increasing concentrations | 97 | – | – | – | – | – | – | –
CC(C)(C)c1cc(O)ccc1O | – | – | – | – | 0.8 | 0.49 | rise and fall in activity as concentrations increased | – | undetectable levels | 2 | – | – | – | – | –
CC1=CC(=O)c2ccccc2C1=O | 3.5 fold | 25 | 2.5 | 1.7 fold | 2.0 | 1.2 | – | – | – | – | 11 | 1.0 | – | – | –
COC(=O)/C=C/C(=O)OC | 12 fold | 10 | 1.0 | 4.0 fold | 2.4 | 1.5 | increase in nitroglycerin-degrading activity with increasing concentrations | – | – | – | 38 | 2.4 | 2.2 | 13 | –
COC(=O)/C=C\C(=O)OC | – | – | – | – | 1.4 | 0.82 | increase in nitroglycerin-degrading activity with increasing concentrations | – | – | – | – | – | – | – | –
CCOC(=O)/C=C\C(=O)OCC | 22 fold | 13 | 1.3 | 9.9 fold | 2.1 | 1.3 | increase in nitroglycerin-degrading activity with increasing concentrations | – | – | – | 72 | 5.9 | – | 11 | 2.8
COC(=O)CC(=O)OC | – | – | 0.15 | – | 0.55 | 0.33 | – | – | – | – | 3.1 | 1.1 | – | – | –
O=c1oc2ccccc2cc1O | – | – | – | – | 0.44 | 0.27 | rise and fall in activity as concentrations increased | – | – | – | – | – | – | – | –
CCOC(=O)CC(=O)OCC | – | – | 0.11 | – | 0.81 | 0.49 | – | – | – | – | 4.5 | 0.60 | – | – | –
CCN1C(=O)C=CC1=O | 1.1 fold | 2.7 | 0.27 | 1.2 fold | 2.0 | 1.2 | – | – | – | – | 3.7 | 0.72 | – | – | –
